Sequences of proteins named here, by UniProt entry; tags and fusion partners are left off. Residues count along the entry.
UniProt O56129, 42-233: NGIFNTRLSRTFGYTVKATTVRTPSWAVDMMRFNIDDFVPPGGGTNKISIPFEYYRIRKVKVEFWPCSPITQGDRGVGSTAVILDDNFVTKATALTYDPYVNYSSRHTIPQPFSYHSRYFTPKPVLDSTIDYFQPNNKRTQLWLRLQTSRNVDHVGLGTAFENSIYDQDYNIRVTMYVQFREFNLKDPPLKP

According to article PMC7077276 (Viruses, 2020):

Key:
[1] = biological target: T1, PCV2 capsid protein (dcapsid) (Porcine circovirus 2, UniProt O56129); experiment: Microscale thermophoresis assay (MST), wild-type dcapsid; assay type: binding, porcine circovirus type 2 (PCV2); conditions: Cy5 labelled, read-out: Kd between dcapsid and compound
T1 construct: hexahistidine (N); made in house; host or cells: Escherichia coli BL21 (DE3)

[2] = biological target: T2, PCV2 dcapsid bound to Heparin-Sepharose (Porcine circovirus 2, UniProt O56129); experiment: Heparin column chromatography (competitive elution of dcapsid); assay type: binding, porcine circovirus type 2 (PCV2)
T2 construct: hexahistidine (N); made in house; host or cells: Escherichia coli BL21 (DE3)

heparin
Kd [1]: 121 ± 4.73 µM | dcapsid protein fraction eluted from heparin column ([2]; competitor 0.05 mg/mL): 36.00 ± 6.25% | dcapsid protein fraction eluted from heparin column ([2]; competitor 0.5 mg/mL): 89.33 ± 4.16%
